Reference: US20260151503A1, “TARGETED NANOPARTICLE, TARGETED CELL, PREPARATION METHOD THEREFOR, AND USE THEREOF” (INSTITUTE OF PROCESS ENGINEERING, CHINESE ACADEMY OF SCIENCE, priority 2022, published 2026)

Assays:
[1] = Transmission electron microscopy of ferritin cluster; assay type: physicochemical; conditions: FIG. 2
Protocol: The preparation of the targeted cell of the present invention comprises the following steps: • (1) The protein was aggregated and precipitated to form a protein cluster under electrolyte or non-electrolyte conditions; • non-electrolyte conditions: Ferritin was dissolved in PBS buffer (pH 7.2-7.4) to a final concentration of 10 mg/mL. Then, absolute ethanol was added dropwise to the solution at room temperature under magnetic stirring at 1000 rpm until the solution became cloudy visible to the naked eye.
Electrolyte conditions: Ferritin was dissolved in PBS buffer (pH 7.2-7.4) to a final concentration of 10 mg/mL. Then, a saturated ammonium sulfate solution was added dropwise to the solution at room temperature under magnetic stirring at 1000 rpm until the solution became cloudy visible to the naked eye.
(2) The clusters were crosslinked in the presence of a crosslinking agent to obtain a crosslinked targeted nanoparticle. The crosslinking in the step was to directly add a 25% glutaraldehyde solution into the turbid solution in step (1) until the final concentration was 0.25-1%, or add NHS-PEG-NHS to the final concentration of about 1%. The mixture was then allowed to react for 1.5 h at room temperature with stirring at 1000 rpm. […]

[2] = tested on: leukemia cells; assay: High-content dynamic fluorescence imaging of FnC capture from the CAR T surface; assay type: cell-based, human; conditions: co-incubation of FnC-CAR T with leukemia cells; FIG. 13
Protocol: Labeling of cells: CAR T cells were labeled with red fluorescent Celltracker dye, leukemia cells were labeled with CFSE, and the ferritin cluster nano-particle formulation was labeled with Cy5-se dye in this experiment. The wavelengths of the three excitation lights were 561 nm, 488 nm, and 633 nm, respectively.
Specific experimental steps: The fluorescently labeled CAR T cells and fluorescently labeled ferritin cluster nano-particle formulation described above were prepared into FnC-CAR T according to the previously described method.

With “FnC: full-heavy chain recombinant ferritin aggregated, precipitated and crosslinked (glutaraldehyde or NHS-PEG-NHS) into clusters” the particle size [1] was 300-500 nm, the “capture of FnC from the CAR T surface by leukemia cells” value [2] was “able to take FnC off the CAR T surface” and the “uptake of FnC by CAR T” value [2] was “did not take up”.
